Measurements reported in article PMC10135057, “Molecular Modification of Kex2 P1’ Site Enhances Expression and Druggability of Fungal Defensin” (Antibiotics, 2023).
Converted amounts (≈) assume the structure as drawn. Marks after values point to notes of the source that are not given here.

What was measured:
RAW264.7 cells = settings: at 128 μg/mL; cited from earlier work
Source text: Table 4 Expression level and druggability of FNZ and NZ2114. | column: NZ2114 || Maximizing antibacterial activity of AMPs with minimal host toxicity is an attractive direction. A hemolysis test is mainly used to detect the rupture of red blood cells and determine whether drugs are harmful in vivo [54]. […] The π–π stacking b ...

[1] = system: mouse red blood cells (MRBCs); settings: cited from earlier work
Source text: Table 4 Expression level and druggability of FNZ and NZ2114. | column: NZ2114

[2] = system: Salmonella enterica ATCC 13076; assay: Minimal inhibitory concentration (MIC); type: cell-based; settings: CLSI procedure, triplicate
Experimental: (§1) The minimal inhibitory concentrations (MICs) assay was performed according to the CLSI procedures with the final peptide concentrations of 256, 128, 64, 32, 16, 8, 4, 2, 1, and 0.5 μg/mL, respectively. All tests were conducted in triplicate.

[3] = system: Pseudomonas aeruginosa CICC 20625; assay: Minimal inhibitory concentration (MIC); type: cell-based; settings: CLSI procedure, triplicate
Experimental: as §1

S. aureus ATCC 25923 = type: cell-based, Staphylococcus aureus; settings: CLSI procedure, triplicate
Experimental: as §1

S. aureus CVCC 546 = type: cell-based, Staphylococcus aureus; settings: CLSI procedure, triplicate
Experimental: as §1

[4] = system: Escherichia coli ATCC 25922; type: cell-based; settings: CLSI procedure, triplicate
Experimental: as §1

[5] = system: Staphylococcus aureus ATCC 43300; type: cell-based; settings: S. aureus ATCC 43300; CLSI procedure, triplicate
Experimental: as §1

Question: Which results are given for CC[C@H](C)[C@@H]1NC(=O)[C@H](CO)NC(=O)[C@H](CCCCN)NC(=O)[C@@H]2CSSC[C@@H](C(=O)N[C@@H](Cc3ccc(O)cc3)C(=O)O)NC(=O)[C@H](CCCCN)NC(=O)[C@@H]3CSSC[C@H](NC(=O)[C@H](CCCNC(=N)N)NC(=O)[C@H](CC(C)C)NC(=O)[C@H](CC(=O)O)NC(=O)[C@H](CC(=O)O)NC(=O)[C@H](CCC(=O)O)NC(=O)[C@H](CC(N)=O)NC(=O)[C@H](Cc4c[nH]c5ccccc45)NC(=O)[C@@H]4CCCN4C(=O)CNC(=O)[C@H](CC(N)=O)NC(=O)[C@@H](NC(=O)CNC(=O)[C@H](Cc4ccccc4)NC(=O)CN)CSSC[C@H](NC(=O)[C@H](Cc4ccc(O)cc4)NC(=O)CNC(=O)CNC(=O)[C@H](CCCCN)NC(=O)[C@H](Cc4ccc(O)cc4)NC(=O)CNC(=O)[C@H](CCCCN)NC1=O)C(=O)N[C@@H](C)C(=O)N[C@@H](CCCCN)C(=O)NCC(=O)NCC(=O)N[C@@H](Cc1ccccc1)C(=O)N[C@@H](C(C)C)C(=O)N3)C(=O)N[C@@H](Cc1c[nH]cn1)C(=O)N[C@@H](CC(N)=O)C(=O)N[C@@H](Cc1c[nH]cn1)C(=O)N2 [NZ2114]?
Answer: Cell viability (survival) (RAW264.7 cells): 52.13%; Hemolysis [1]: Less than 0.1% ^b; MIC [2]: >28.97 µM; MIC [3]: >28.97 µM; MIC (S. aureus ATCC 25923): 0.91 µM (≈ 4.01 µg/mL); MIC (S. aureus CVCC 546): 1.81 µM (≈ 7.98 µg/mL); MIC [4]: >28.97 µM; MIC [5]: 0.91 µM (≈ 4.01 µg/mL)
